We go through three molecules from PubChem BioAssay AID489035 (Sanford-Burnham Center for Chemical Genomics, 2010).

Active and inactive are the calls of the source. The rule behind the calls is not given here.

The assay relates to Jurkat NF-kB reporter, TCR-induced, luciferase luminescence. Description: inhibitors of TCR-driven NF-kB activation, dose response, Jurkat cells, luminescence (AID 489035).
Consider `CC[n+]1c(/C=C/N(C)c2ccccc2)oc2ccccc21`, for which the IC50 is inactive: > 80 µM. With `O=c1c2ccccc2nc(/C=C/c2ccc([N+](=O)[O-])o2)n1-c1ccc(O)cc1` the figure was 1.7 µM.

As for `Cc1ccnc2c1ccc1cccnc12`, the IC50 was 12.9 µM.
